Literature values as cited in article PMC5250654 (Clinical Drug Investigation, 2016).

Test system: SYK
Settings: read-out: SYK kinase activity IC50; ATP-competitive inhibitor; cited from earlier work

c1cn2cc(-c3ccc4cn[nH]c4c3)nc(Nc3ccc(N4CCOCC4)cc3)c2n1 [entospletinib, Entospletinib]
IC50: 7.6 nM
